Test results published in PubChem BioAssay (Tox21).
The entries are a selection whose mix differs from that of the whole data set. Results filed as inconclusive are left out. Where a structure was tested more than once in an assay, its records may differ in their call. Calls of active or inactive are those of the source. Calls follow the shape of the full dose curve.

The chains behind the UniProt entries cited, without tags or fusion partners. Where a name states a change or a piece, a line headed by the entry shows the natural chain unless it says otherwise.
UniProt P22303: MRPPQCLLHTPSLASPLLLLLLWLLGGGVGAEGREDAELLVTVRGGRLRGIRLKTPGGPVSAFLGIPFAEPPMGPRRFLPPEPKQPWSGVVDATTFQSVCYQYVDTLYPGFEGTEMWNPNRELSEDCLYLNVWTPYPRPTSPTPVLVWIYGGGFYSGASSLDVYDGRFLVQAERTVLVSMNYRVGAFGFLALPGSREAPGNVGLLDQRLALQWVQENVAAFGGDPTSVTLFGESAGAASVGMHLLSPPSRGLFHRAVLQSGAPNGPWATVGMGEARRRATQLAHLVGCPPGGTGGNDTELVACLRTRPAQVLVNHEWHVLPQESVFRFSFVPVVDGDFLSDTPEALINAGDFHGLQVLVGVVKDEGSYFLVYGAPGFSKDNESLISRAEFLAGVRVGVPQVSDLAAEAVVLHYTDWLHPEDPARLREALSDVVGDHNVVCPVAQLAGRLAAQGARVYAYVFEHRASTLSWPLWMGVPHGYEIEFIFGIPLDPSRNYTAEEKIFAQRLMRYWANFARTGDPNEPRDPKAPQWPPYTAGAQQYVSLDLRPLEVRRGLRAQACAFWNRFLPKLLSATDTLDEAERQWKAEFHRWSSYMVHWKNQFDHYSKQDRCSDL

molecular target: Acetylcholinesterase (Homo sapiens) (UniProt P22303); assay: Acetylcholinesterase (AChE) small molecule antagonists: colormetric cell-based qHTS assay (AID 1347395); details: SH-SY5Y cells AChE activity, colorimetric (Ellman); series mostly up to 115 µM; activity, negative = inhibition: at the top concentration; also: nearly all actives have a fitted effect of over 30% in size
Text: National Center for Advancing Translational Sciences [NCATS]
Division of Preclinical Innovation [DPI]
U.S. Environmental Protection Agency [EPA]
National Institutes of Environmental Health Sciences [NIEHS]
National Toxicology Program [NTP]
U.S. Food and Drug Administration [FDA]
Acetylcholinesterase (AChE) is the primary cholinesterase in the body that hydrolyzes a key neurotransmitter, acetylcholine. Inhibition of AChE activity can lead to neurotoxicity. The known inhibitors include organophosphorous pesticides (OP), chemical warfare agents, drugs, and various phytochemicals.
A homogenous cell-based assay using the Amplite Colormetric acetylcholinesterase assay kit (AAT Bioquest, Sunnyvale, CA) was used to evaluate the chemicals in the Tox21 10K library that inhibit AChE activity. The assay uses 5, 5-dithiobis-(2-nitrobenzoic acid) (DTNB) to quantify the thiocholine produced from the hydrolysis of acetylthiocholine by AChE from the SH-SY5Y cells.
Tox21 Assay Protocol Summary:
For the cell-based AChE assay, 2,000 SH-SY5Y cells in 4 uL/well were dispensed into black, clear-bottom 1536-well plates using a Multidrop Combi dispenser (Thermo Scientific, MA). The assay plates were incubated overnight at 37 C to allow cells to attach to the wells, followed by the transfer of 23 nL of compound or DMSO (vehicle control) by a Pintool Station (Wako Automation, CA). The plates were incubated for 30 min at 37 C and 5% CO2, followed by the addition of 4 uL of detection cocktail solution (DTNB, acetylthiocholine) into each well using a Flying Reagent Dispenser (Beckman Coulter, CA) and then 90 min incubation at 37 C.
% is scaled to controls: 0 for no effect and ±100 for the full control effect; potency is read from the fitted curve at half-maximal effect.

Compound | activity, negative = inhibition | Potency
CN(C(=O)Cc1ccccc1)[C@H]1CC[C@@]2(CCCO2)C[C@@H]1N1CCCC1 | inactive: 3.21% [at 52.9 µM] | –
CC(C)CCCCCCCOP(OCCCCCCCC(C)C)Oc1ccccc1 | inactive: -0.404% | –
COP(=S)(Cl)OC | inactive: 1.08% | –
CCCCC(CC)CO[P+](=O)OCC(CC)CCCC (configuration not stated) | inactive: 1.01% | –
O=[As]c1ccccc1 (configuration not stated) | inactive: 3.89% | –
CCCCCCCCCCCCCC[P+](CCCCCC)(CCCCCC)CCCCCC | inactive: 0.116% | –
O=P(Cl)(Cl)c1ccccc1 | inactive: 0.106% | –
COC(=O)Cl | inactive: -0.842% | –
CCOP(=S)(CC)Sc1ccccc1 (configuration not stated) | – | active: 63 µM
CCCCO[P+](=O)OCCCC | – | inactive
CN(C(=O)Cc1cccc2occc12)[C@H]1CC[C@@]2(CCCO2)C[C@@H]1N1CCCC1 | inactive: -0.643% | –
O=C(Cl)Oc1ccccc1 | inactive: 6.35% | –
CCOC(=O)Cl | inactive: 2.14% | –
O=P(Cl)(Oc1ccccc1)Oc1ccccc1 | inactive: 1.68% | –
Cc1cc([N+](=O)[O-])cc([N+](=O)[O-])c1O | – | inactive
ClP(Cl)c1ccccc1 | inactive: -3.54% | –
CN(C(=O)Cc1ccc(Cl)c(Cl)c1)[C@H]1CC[C@@]2(CCCO2)C[C@@H]1N1CCCC1 | inactive: -1.19% [at 52.9 µM] | –
O=[P+](Oc1ccccc1)Oc1ccccc1 | inactive: 3.3% | –
CCC(C)(OOC(C)(C)C)OOC(C)(C)C | inactive: -0.0859% [at 23.6 µM] | –
CCNC(C)Cc1ccc2c(c1)OCO2 (configuration not stated) | inactive: 0.168% | –
Cc1cc([N+](=O)[O-])c(O)c([N+](=O)[O-])c1 | inactive: 9.7% | –
O=[p+]1oc2ccccc2c2ccccc21 (configuration not stated) | inactive: 2.15% | –
